Data published in patent publication US6933289B2, “Inhibition of irritating side effects associated with use of a topical ophthalmic medication” (Allergan, Inc., priority 2003, dated 2005).

Assay: Phase-solubility analysis: association constant between bimatoprost and cyclodextrin or cyclodextrin derivative
Assay type: physicochemical
Details: 1:1 complex with bimatoprost, stirred one week at room temperature
From the text: The association constant between an active drug and a cyclodextrin or cyclodextrin derivative is used to quantify the equilibrium association reaction depicted in equation 1, D+CD=D . . . CD (1) where D represents the active drug, CD represents the cyclodextrin or cyclodextrin derivative, and D . . . CD represents the associated complex of the two. The association constant, K, defines the relationship between the molar concentration of the active drug, [D], the molar concentration of the cyclodextrin or cyclodextrin derivative, [CD], and the molar concentration of the complex, [D . . . CD], according to equation 2. [formula]
The association constant between the bimatoprost and four cyclodextrin or cyclodextrin derivatives was determined by running phase-solubility analysis. […] The concentration of the solubilized drug in each filtrate sample was determined and drug solubility (y-axis) was plotted against the concentration of the cyclodextrin or cyclodextrin derivative (x-axis). A linear fit of the data was made using least-squares regression to a linear to equation (3). y=(slope)x+b (4) The association constant for a 1:1 complex (K) was determined by equation (5) K=slope/S0(1−slope) (5) where S0is the maximum solubility of the active drug in the formulation in the absence of the cyclodextrin or cyclodextrin derivative. […]

Q: For 2-Hydroxypropyl γ-cyclodextrin, which “Association Constant (molar association constant for bimatoprost)” value is on record?
A: ≈201 M^−1
